Source: ChEMBL document CHEMBL1124682, “Quaternary salts of 2-[(hydroxyimino)methyl]imidazole. 3. Synthesis and evaluation of (alkenyloxy)-, (alkynyloxy)-, and (aralkyloxy)methyl quaternarized 2-[(hydroxyimino)methyl]-1-alkylimidazolium halides as reactivators and therapy for soman intoxication” (1989)

What was measured:
[1] = target: T1, Acetylcholinesterase (Homo sapiens, UniProt P22303); test: Reversible inhibition of acetylcholinesterase (AChE) by 50 % in human erythrocytes
[2] = target: T1, Acetylcholinesterase; test: Concentration of compound that reversibly inhibits acetylcholinesterase (AChE) by 50 %

SMILES	IC50 [1] [µM]	IC50 [2] [µM]
C#CCCOC[n+]1ccn(C)c1C	27	
C#CCCCC[n+]1ccn(C(C)(C)C)c1/C=N/O	76.6	
C#CCCCC[n+]1ccccc1/C=N/O		61.5
C#CCCCC[n+]1cn(C)c(/C=N/O)n1		62.5
